The chains behind the UniProt entries cited, without tags or fusion partners. Where a name states a change or a piece, a line headed by the entry shows the natural chain unless it says otherwise.
UniProt P09619: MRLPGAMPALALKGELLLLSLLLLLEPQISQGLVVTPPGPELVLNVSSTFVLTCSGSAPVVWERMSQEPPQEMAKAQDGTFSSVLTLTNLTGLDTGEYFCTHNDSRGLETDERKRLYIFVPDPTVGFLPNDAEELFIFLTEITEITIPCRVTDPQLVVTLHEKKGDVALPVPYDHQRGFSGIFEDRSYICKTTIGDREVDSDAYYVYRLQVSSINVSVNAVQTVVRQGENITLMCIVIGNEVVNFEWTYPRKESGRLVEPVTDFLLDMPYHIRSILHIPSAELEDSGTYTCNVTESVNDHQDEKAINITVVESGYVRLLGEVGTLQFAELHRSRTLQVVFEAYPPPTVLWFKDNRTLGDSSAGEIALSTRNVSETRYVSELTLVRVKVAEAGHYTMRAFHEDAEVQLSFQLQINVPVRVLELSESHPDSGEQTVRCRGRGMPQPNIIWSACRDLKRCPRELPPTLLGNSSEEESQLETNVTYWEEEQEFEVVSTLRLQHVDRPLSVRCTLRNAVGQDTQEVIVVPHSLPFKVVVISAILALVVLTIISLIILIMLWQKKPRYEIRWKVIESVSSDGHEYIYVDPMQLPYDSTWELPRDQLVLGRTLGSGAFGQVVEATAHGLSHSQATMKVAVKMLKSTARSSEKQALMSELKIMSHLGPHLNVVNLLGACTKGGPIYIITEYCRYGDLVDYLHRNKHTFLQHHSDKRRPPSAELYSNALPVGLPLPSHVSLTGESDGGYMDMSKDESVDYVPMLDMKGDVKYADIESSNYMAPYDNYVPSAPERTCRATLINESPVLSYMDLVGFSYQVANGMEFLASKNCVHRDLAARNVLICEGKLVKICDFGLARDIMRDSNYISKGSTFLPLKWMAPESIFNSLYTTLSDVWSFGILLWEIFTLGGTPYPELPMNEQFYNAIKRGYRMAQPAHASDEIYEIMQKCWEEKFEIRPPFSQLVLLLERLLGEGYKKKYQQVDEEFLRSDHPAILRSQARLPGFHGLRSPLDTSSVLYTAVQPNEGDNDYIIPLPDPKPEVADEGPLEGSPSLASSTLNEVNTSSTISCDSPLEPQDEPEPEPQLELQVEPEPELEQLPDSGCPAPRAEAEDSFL

In patent US7196110B2, “N-substituted tricyclic 3-aminopyrazoles as inhibitors for the treatment of cell proliferative disorders” (Janssen Phamaceutica N.V., priority 2002, dated 2007):

How the values were obtained:
[1] = test system: human coronary artery smooth muscle cells (HCASMC), PDGF-BB induced; assay: Anti-cell proliferation in normal cells in the presence of PDGF stimulation (14C-thymidine incorporation); type: cell-based
[2] = test system: AsPC1 (pancreas); assay: Anti-cell proliferation in tumor cells (14C-thymidine incorporation), AsPC1; type: cell-based; conditions: Homo sapiens
[3] = test system: LoVo (colon); assay: Anti-cell proliferation in tumor cells (14C-thymidine incorporation), LoVo; type: cell-based; conditions: Homo sapiens
[4] = test system: PC3 (prostate); assay: Anti-cell proliferation in tumor cells (14C-thymidine incorporation), PC3; type: cell-based; conditions: Homo sapiens, PC-3
[5] = test system: human umbilical vein endothelial cells (HUVEC); assay: Anti-cell proliferation in normal cells in the absence of PDGF stimulation (BrdU incorporation); type: cell-based; conditions: LSGS, PDGF-BB independent
[6] = target: T1, PDGF-receptor beta enzyme comprising the tyrosine kinase domain (Homo sapiens, UniProt P09619); assay: Inhibition of PDGF-receptor kinase activity (cell-free, PLC1 peptide, 33P Flashplate); type: biochemical; conditions: PDGF-R kinase activity
T1 construct: from amino acid 545 to 1106 of GenBank Access NO: AAA36427

[7] = test system: A375 (melanoma); assay: Anti-cell proliferation in tumor cells (14C-thymidine incorporation), A375; type: cell-based; conditions: Homo sapiens, A-375
[8] = test system: H460 (lung); assay: Anti-cell proliferation in tumor cells (14C-thymidine incorporation), H460; type: cell-based; conditions: Homo sapiens, NCI-H460

SMILES | IC50 [1] | IC50 [2] | IC50 [3] | IC50 [4] | IC50 [5] | IC50 [6] | IC50 [7] | IC50 [8]
COc1cc2c(cc1OC)-c1n[nH]c(Nc3cccc(Cl)c3)c1C2 [Compound 4, (3-Chloro-phenyl)-(6,7-dimethoxy-2,4-dihydro-indeno[1,2-c]pyrazol-3-yl)-amine] | 268 nM | 427 nM | 12 nM | 48 nM | 1730 nM | 3 nM | 1580 nM | –
COc1ccc2c(c1)-c1n[nH]c(Nc3ccccc3)c1C2 [Compound 39, (7-Methoxy-2,4-dihydro-indeno[1,2-c]pyrazol-3-yl)-phenyl-amine] | – | – | 10500 nM | – | 15 nM | 18 nM | – | 9950 nM
